Assay results as given in PMC5701749 (Biochemistry, 2017).
Like-named read-outs stand apart in the source and are kept apart here.

By UniProt entry, the sequences of proteins in these tests, tags left out.
UniProt P21447, whole entry: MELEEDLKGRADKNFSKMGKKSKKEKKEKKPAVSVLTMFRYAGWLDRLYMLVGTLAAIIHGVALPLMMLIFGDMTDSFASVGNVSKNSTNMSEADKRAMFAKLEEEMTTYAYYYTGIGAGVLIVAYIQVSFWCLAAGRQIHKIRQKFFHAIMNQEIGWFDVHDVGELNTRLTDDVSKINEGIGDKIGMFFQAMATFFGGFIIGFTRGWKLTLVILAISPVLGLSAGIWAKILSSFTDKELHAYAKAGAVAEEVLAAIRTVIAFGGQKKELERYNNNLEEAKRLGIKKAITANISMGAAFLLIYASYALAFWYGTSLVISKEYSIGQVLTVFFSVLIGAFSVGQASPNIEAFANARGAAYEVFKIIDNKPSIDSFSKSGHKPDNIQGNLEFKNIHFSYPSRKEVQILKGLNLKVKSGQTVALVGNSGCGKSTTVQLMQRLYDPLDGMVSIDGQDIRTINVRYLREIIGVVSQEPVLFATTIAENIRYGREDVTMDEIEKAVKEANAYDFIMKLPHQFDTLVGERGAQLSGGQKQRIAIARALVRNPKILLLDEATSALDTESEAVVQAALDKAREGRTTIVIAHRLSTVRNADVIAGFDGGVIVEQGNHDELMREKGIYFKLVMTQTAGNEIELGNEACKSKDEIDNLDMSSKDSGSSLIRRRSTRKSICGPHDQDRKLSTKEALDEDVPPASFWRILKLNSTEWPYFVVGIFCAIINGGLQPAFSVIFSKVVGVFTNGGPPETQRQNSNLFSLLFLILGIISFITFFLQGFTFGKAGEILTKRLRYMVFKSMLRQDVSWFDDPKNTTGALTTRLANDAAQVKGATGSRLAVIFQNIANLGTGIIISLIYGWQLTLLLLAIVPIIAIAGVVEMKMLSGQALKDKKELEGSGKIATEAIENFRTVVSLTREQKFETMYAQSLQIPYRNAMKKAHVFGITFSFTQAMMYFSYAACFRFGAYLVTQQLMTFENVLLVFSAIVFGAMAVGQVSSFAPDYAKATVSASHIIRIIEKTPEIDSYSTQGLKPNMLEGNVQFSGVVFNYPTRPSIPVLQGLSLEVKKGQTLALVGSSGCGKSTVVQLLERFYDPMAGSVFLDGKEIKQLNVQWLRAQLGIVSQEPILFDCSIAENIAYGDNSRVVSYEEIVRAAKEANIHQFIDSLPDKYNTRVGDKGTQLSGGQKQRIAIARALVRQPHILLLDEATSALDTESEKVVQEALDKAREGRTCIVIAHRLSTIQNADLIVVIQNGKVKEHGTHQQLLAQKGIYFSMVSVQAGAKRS
UniProt P08183, whole entry: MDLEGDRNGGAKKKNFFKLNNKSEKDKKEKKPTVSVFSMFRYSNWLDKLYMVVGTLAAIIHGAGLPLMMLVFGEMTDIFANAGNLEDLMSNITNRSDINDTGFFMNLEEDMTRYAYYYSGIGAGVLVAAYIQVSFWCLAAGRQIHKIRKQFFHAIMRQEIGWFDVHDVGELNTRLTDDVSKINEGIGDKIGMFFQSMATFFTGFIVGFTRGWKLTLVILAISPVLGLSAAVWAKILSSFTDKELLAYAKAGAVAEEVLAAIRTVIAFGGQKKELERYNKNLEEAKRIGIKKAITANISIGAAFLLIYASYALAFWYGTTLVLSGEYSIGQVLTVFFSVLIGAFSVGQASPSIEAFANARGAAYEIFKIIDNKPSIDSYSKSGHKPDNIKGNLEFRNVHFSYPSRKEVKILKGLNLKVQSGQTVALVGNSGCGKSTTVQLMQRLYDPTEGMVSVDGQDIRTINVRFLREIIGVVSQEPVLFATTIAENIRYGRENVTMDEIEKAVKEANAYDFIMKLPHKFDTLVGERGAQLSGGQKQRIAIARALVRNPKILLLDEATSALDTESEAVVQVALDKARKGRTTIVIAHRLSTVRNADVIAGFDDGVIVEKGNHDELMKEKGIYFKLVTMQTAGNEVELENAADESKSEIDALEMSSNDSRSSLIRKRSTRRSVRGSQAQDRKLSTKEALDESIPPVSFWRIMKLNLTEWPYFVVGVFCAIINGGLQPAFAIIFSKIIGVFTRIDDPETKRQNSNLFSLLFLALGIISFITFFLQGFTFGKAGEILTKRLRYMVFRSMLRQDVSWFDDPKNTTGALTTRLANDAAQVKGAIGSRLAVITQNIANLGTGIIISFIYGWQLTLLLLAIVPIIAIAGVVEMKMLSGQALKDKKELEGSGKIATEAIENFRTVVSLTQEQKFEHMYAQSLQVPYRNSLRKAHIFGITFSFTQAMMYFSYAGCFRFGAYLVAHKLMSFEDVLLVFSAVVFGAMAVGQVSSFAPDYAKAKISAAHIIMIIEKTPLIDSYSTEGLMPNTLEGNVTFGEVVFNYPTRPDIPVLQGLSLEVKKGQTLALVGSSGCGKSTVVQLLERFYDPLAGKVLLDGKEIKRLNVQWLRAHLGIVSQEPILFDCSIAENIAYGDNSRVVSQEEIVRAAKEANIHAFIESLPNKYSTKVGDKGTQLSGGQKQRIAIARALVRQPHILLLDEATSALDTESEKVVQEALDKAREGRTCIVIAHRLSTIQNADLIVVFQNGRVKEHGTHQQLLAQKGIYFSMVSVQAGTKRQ

Key:
mouse P-gp mdr1a [1] = biological target: T1, mouse P-gp mdr1a (Mus musculus, UniProt P21447); conditions: DMPC nanodiscs; footnote d = ambiguous, lack of ATPase stimulation
mouse P-gp mdr1a [2] = biological target: T1, mouse P-gp mdr1a; conditions: E. coli lipid nanodiscs; footnote d = ambiguous, lack of ATPase stimulation
human P-gp = human P-gp (Homo sapiens, UniProt P08183); test: ATPase assay in human P-gp vesicles; conditions: concentration range studied

## BODIPY vinblastine [BD-vinblastine]
Mouse P-gp mdr1a [1]
  K1 (substrate concentration for half-maximal stimulation of ATPase activity): 0.04 ± 0.01 µM
Mouse P-gp mdr1a [2]
  K1 (substrate concentration for half-maximal stimulation of ATPase activity): 0.05 ± 0.1 ^d μM

## Oregon Green 488 Paclitaxel [Flutax-2]
Human P-gp
  stimulation of ATPase activity (in words): did not stimulate ATPase activity
